Laboratory results from patent publication US6737441B2, “Treatment of helicobacter with isothiocyanates” (priority 2000, dated 2004).

Columns and labels:
[1] = system: amoxicillin/clarithromycin/metronidazole - susceptible strains of Helicobacter pylori; experiment: Bacteriostatic activity (MIC) against susceptible strains; type: cell-based
[2] = system: clarithromycin and/or metronidazole - intermediate or resistant strains of Helicobacter pylori; experiment: Bacteriostatic activity (MIC) against intermediate or resistant strains; type: cell-based; conditions: H. pylori strain no 34

Measured: MIC

CC1(C)S[C@@H]2[C@H](NC(=O)[C@H](N)c3ccc(O)cc3)C(=O)N2[C@H]1C(=O)O [Amoxicillin]
0.125 µg/mL: [1]; H. pylori strain no 21 | [1]; H. pylori strain no 29 | [2]
